# Experimental data published in patent publication US20110098554A1, “Monitoring of convection enhanced drug delivery” (priority 2004, published 2011).
# Assays:
# [1] = CED into rat striatum, convection monitored by T1-weighted MRI of infusates mixed with Gd-DTPA; details: Gd-DTPA mixed with 0.2% human serum albumin, 17% sucrose or Taxol
# Protocol: (§1) The resultant solution was infused into the striatum of normal Sprague-Dawley (SD) rats (males, 250-300 grams). T1-weighted MR images were acquired immediately post treatment to assess the extent of convection. Additionally, T2-weighted and diffusion-weighted MR images were acquired 24 hours post treatment to assess the response of the tissue and its correlation to the extent of convection.
# (§2) Under full anesthesia, a midline scalp incision was made to identify the bregma. A 1 mm burr hole was made in the right region of the skull, 3 mm anterior and 2 mm lateral to the bregma. A 33-gauge needle attached to a 1000 μl syringe (Gastight; Hamilton) was placed stereotactically 5.5 mm deep into the striatum. The infusion was performed using a BASI syringe pump at a rate of 1 μl/min for a duration ranging from […].
# The volume (in cm^3) of the composition distribution was calculated from the T1-weighted MR images acquired immediately post CED treatment. Region-of interests (ROIs) were defined over the entire enhancing region in each slice (excluding the ventricles). The number of pixels in the ROIs was counted and multiplying by the volume of a single pixel. Equation 1 was used to calculate ADC maps of the diffusion-weighted MR images.
# [2] = tested on: striatum of normal Sprague-Dawley (SD) rats; assay: Cytotoxic tissue response to CED by T2-weighted and diffusion-weighted MRI and histology
# Protocol: as §1, §2
# In order to obtain a wide range in volumes of distribution, the infusion times were varied between 17 to 60 minutes. 13 rats were treated with Carboplatin (4 mg/ml, 17 minutes infusion). […]
# The volume (in cm^3) of the composition distribution was calculated from the T1-weighted MR images acquired immediately post CED treatment. […] The number of pixels in the ROIs was counted and multiplying by the volume of a single pixel. […]
substance,measurement,setting,value
"human serum albumin: non-toxic infusate, pharmaceutical carrier that increases viscosity",convection efficiency (T1-weighted MRI immediately post treatment),[1],poor convection
same,tissue toxicity (T2-weighted and diffusion-weighted MRI),"[2]; 24 hours post treatment, 0.2% human serum albumin, 17% sucrose or Taxol",no toxicity
same,enhancement on T2-weighted and diffusion-weighted MR images at the site of the catheter tip,[2]; efficient prolonged (90 minutes) CED of non-toxic infusates,minor enhancement
